# Reference: patent publication US6090987A, “Metal-ligand complex catalyzed processes” (Union Carbide Chemicals & Plastics Technology Corporation, priority 1998, dated 2000)
# Assay: Residual propylene hydroformylation activity after heat treatment, Ligand F catalyst (Table 1)
# Method: A catalyst solution (100 milliliters) was generated in a six ounce Fisher Porter Bottle by dissolving 0.063 grams of rhodium dicarbonyl 2,4-pentanedionate, 0.8 grams of Ligand F, 20 grams of n-butyraldehyde, and 78.7 grams of tetraethylene glycol dimethyl ether, subsequently alternately evacuating and flushing with nitrogen; and finally adding 60 psi of CO:H2, and placing the bottles in a 100° C. oil bath for 1 hour.
# After closing the reactor, the system was again purged with nitrogen and place in an oil bath heated to 100° C. The hydroformylation reaction in each experiment was conducted at a total gas pressure of 160 psig. […]
# The same procedure as in Example 2 was followed with the exception that a slow stream of 1,2-propadiene was purged through the initially generated catalyst solution for 5 minutes. […] The resulting solution was heated at 125° C. as in Example 2, and 20 milliliters of the resulting solution was transferred to a glass reactor as in Example 2 and the activity determined.
# The same procedure as in Example 3 was followed except 2 milliliters of 1,3-butadiene was added to the generated catalyst and stirred for 5 minutes. […] The resulting solution was heated at 125° C. as in Example 2, and 20 milliliters of the resulting solution was transferred to a glass reactor as in Example 2 and the activity determined. […]
smiles,measurement,value
"C=CC=CC [Piperylene, 1,3-pentadiene]",% Activity,88.1%
same,Final Rate,1.92
